In one experiment the target is ORL1 receptor (Homo sapiens, UniProt P41146). In words: ORL1 receptor binding (3H-nociceptin/orphanin FQ, CHO-ORL1 membranes). To be noted: read-out: Ki (ORL1); binding affinity. As to the method:
Methods for determining the Ki value on the ORL1 receptor are known to persons skilled in the art. The determination is preferably carried out in a receptor binding assay with ^3H-nociceptin/orphanin FQ with membranes of recombinant CHO-ORL1 cells. This test system is preferably carried out according to the method put forward by Ardati et al. (Mol. Pharmacol., 51, 1997, p. 816-824). The concentration of ^3H-nociceptin/orphanin FQ in these tests is preferably 0.5 nM. The binding assays are preferably carried out with in each case 20 μg of membrane protein per 200 μl batch in 50 mM Hepes, pH 7.4, 10 mM MgCl2 and 1 mM EDTA. Binding to the ORL1 receptor is preferably determined using in each case 1 mg of WGA-SPA beads (Amersham-Pharmacia, Freiburg) by incubating the batch for one hour at RT and then measuring in a Trilux scintillation counter (Wallac, Finland).

Chains of the proteins cited; added tags and fusions are not shown.
UniProt P41146, whole entry: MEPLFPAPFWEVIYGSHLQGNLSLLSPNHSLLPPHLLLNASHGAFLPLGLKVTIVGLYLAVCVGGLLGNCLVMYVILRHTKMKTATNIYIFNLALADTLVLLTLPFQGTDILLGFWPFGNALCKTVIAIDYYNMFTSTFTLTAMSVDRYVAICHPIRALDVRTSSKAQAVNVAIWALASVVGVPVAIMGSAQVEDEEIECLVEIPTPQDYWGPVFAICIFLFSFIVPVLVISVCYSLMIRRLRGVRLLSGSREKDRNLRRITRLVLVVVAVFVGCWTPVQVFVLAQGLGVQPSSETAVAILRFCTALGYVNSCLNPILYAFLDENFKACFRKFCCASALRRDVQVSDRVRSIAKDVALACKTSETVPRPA
UniProt P35372, whole entry: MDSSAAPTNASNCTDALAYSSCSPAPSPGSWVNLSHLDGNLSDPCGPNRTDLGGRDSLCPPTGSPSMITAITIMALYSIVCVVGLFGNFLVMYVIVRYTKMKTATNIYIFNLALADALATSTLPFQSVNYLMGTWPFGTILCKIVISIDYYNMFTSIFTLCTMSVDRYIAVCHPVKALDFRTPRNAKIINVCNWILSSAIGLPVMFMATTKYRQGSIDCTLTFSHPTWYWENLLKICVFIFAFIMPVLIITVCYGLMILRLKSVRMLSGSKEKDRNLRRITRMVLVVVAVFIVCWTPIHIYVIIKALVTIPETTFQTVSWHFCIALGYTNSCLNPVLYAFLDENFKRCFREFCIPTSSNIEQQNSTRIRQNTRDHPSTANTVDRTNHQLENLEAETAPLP

Another experiment deals with human μ-opiate receptor (Homo sapiens, UniProt P35372). In words: μ-opioid receptor binding ([3H]-naloxone, CHO-K1 membranes). To be noted: read-out: Ki (μ); binding affinity. As for the experimental part:
Methods of determining the Ki value on the μ-opioid receptor are known to persons skilled in the art. The determination is preferably carried out in a homogeneous batch in microtitre plates. To that end, serial dilutions of the substances to be tested are preferably incubated for 90 minutes at room temperature with a receptor membrane preparation (15-40 μg of protein per 250 μl of incubation batch) of CHO-K1 cells which express the human μ-opiate receptor (RB-HOM receptor membrane preparation from NEN, Zaventem, Belgium) in the presence of 1 nmol/l of the radioactive ligand [^3H]-naloxone (NET719, NEN, Zaventem, Belgium) and 1 mg of WGA-SPA beads (wheat germ agglutinin SPA beads from Amersham/Pharmacia, Freiburg, Germany), in a total volume of 250 There is preferably used as the incubation buffer 50 mmol/l of Tris-HCl supplemented with 0.05 wt. % sodium azide and 0.06 wt. % bovine serum albumin. For the determination of non-specific binding, 25 μmol/l of naloxone are preferably added in addition. When the 90-minute incubation time is complete, the microtitre plates are preferably centrifuged off for 20 minutes at 1000 g and the radioactivity is measured in a β counter (Microbeta-Trilux, PerkinElmer Wallac, Freiburg, Germany). The percentage displacement of the radioactive ligand from its binding to the human μ-opiate receptor at a concentration of the test substances of preferably 1 μmol/l is determined and indicated as the percentage inhibition (% inhibition) of specific binding. On the basis of the percentage displacement by different concentrations of the compounds to be tested it is possible to calculate IC50 inhibitory concentrations, which effect 50% displacement of the radioactive ligand. The Ki values for the test substances can be calculated therefrom by conversion by means of the Cheng-Prusoff equation.

What is called Ki is the dissociation constant of the complex between target and ligand, obtained from inhibition or displacement. Regarding `CN(C)[C@]1(c2cccc(F)c2)CC[C@]2(CC1)NCCc1c3ccccc3[nH]c12`, the Ki was 0.4 nM at ORL1 receptor and 0.5 nM at human μ-opiate receptor.
In the case of `CN(C)[C@]1(c2ccsc2)CC[C@@]2(CC1)OCCc1c3cc(F)ccc3[nH]c12`, the values for the Ki on ORL1 receptor and at human μ-opiate receptor were 60 nM and 120 nM, respectively.
With `CN(C)[C@]1(c2cccs2)CC[C@@]2(CC1)OCCc1c3ccccc3[nH]c12`, the inhibition constant (Ki) stood at 31 nM on ORL1 receptor and 92 nM at human μ-opiate receptor.
On to `CN(C)[C@]1(c2cccc(F)c2)CC[C@@]2(CC1)NCCc1c3ccccc3[nH]c12`, for which the Ki on ORL1 receptor amounted to 12 nM; on human μ-opiate receptor, 31 nM.

Values taken from patent publication US20160159787A1, “Cis-tetrahydro-spiro(cyclohexane-1, 1' -pyrido[3,4-b]indole)-4-amine Compounds” (published 2016).
